Measurements reported in publication PMC8532962 (Antibiotics, 2021).
≈ marks a conversion by molar mass, not a printed value.

Columns and labels:
[1] = tested on: Candida albicans SC5314; settings: SC5314, 24 h
[2] = tested on: Aspergillus nidulans FGSC A4; settings: 24 h
[3] = tested on: Saccharomyces cerevisiae S288C; settings: 24 h
[4] = tested on: Schizosaccharomyces pombe 972h-
[5] = tested on: E. coli; experiment: Antibacterial MIC, microbroth dilution; format: cell-based, Escherichia coli ATCC 25922; settings: growth curves OD600, 20 h
Experimental: (§1) The antibacterial activity of the natural peptides and analogs was determined using the standard microbroth dilution method for determining minimal inhibitory concentration (MIC). […] The analog EMP-ER-D2K2 is the only analog that has some, but low, activity against B. subtilis with an MIC of 200 μg/mL.
(§2) Escherichia coli ATCC 25922 was obtained from ATCC and Pseudomonas aeruginosa ATCC 27853 was obtained from Carolina Biologicals. Staphylococcus aureus Newman was the S. aureus strain and the B. subtilis strain was JH642 (trpC2, pheA1).
(§3) Bacteria were grown on LB-agar plates (Fisher, Waltham, MA, USA) overnight at 37 °C, then stored at 4 °C until use. Four colonies were inoculated from the plate into 5 mL cation-adjusted Mueller-Hinton medium (Sigma) and grown to approximately OD600 = 1–2 at 37 °C in a shaking incubator at 250 rpm in preparation for antimicrobial activity testing. MICs were determined in cation-adjusted Mueller-Hinton broth using the microbroth dilution method from the Clinical and Laboratory Standards Institute. Growth was monitored by determining the optical density at 600 nm using a BioTek Synergy HTX multi-mode 96-well plate reader set to incubate at 37 °C and record every 15 min for 20 h. Each assay was performed in biological triplicate.

[6] = tested on: B. subtilis; experiment: Antibacterial MIC, microbroth dilution; format: cell-based, Bacillus subtilis JH642; settings: growth curves OD600, 20 h
Experimental: as §1, §2, §3

Compound | MIC Ca [1] [µg/mL] | MIC An [2] [µg/mL] | MIC Sc [3] [µg/mL] | MIC Sp [4] [µg/mL] | effect on Escherichia coli culture growth [5] | effect on B. subtilis culture growth [6]
CC[C@H](C)[C@H](NC(=O)[C@H](CC(=O)O)NC(=O)[C@@H](N)Cc1ccccc1)C(=O)N[C@@H](CC[S+](C)[O-])C(=O)NCC(=O)N[C@@H](CC(C)C)C(=O)N[C@H](C(=O)N[C@@H](CCCCN)C(=O)N[C@@H](CCCCN)C(=O)N[C@H](C(=O)N[C@@H](C)C(=O)NCC(=O)N[C@@H](C)C(=O)N[C@@H](CC(C)C)C(N)=O)C(C)C)[C@@H](C)CC (stereo partly shown) [EMP-ER-OR] | 256 (≈ 172 µM) | >256 | >256 | >256 | reduced the final density | reduced the final density
CC[C@H](C)[C@H](NC(=O)[C@H](CC(=O)O)NC(=O)[C@@H](N)Cc1ccccc1)C(=O)N[C@@H](CC[S+](C)[O-])C(=O)NCC(=O)N[C@@H](CC(C)C)C(=O)N[C@H](C(=O)N[C@@H](CCCCN)C(=O)N[C@@H](CCCCN)C(=O)N[C@H](C(=O)N[C@@H](C)C(N)=O)C(C)C)[C@@H](C)CC (stereo partly shown) [EMP-ER-C3] | >256 | >256 | >256 | >256 | – | –
